NR1D1 modulator: modulators of human Rev-erb alpha DNA binding | P20393 | Rev-erbα–FITC-DNA binding, fluorescence polarization, 90 min | activity, % at 10 µM | actives 0.79% (n = 370,000) | AID 1259318;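 active = activity above about 14%, limit read from the data; passing the limit was not always enough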
UUG fidelity: modulators of yeast start codon fidelity, primary screen, whole organism, S. cerevisiae, single point, plate reader | AID 602363, 2012 | actives 0.13% (n = 350,000) | activity score, % at 18.7 µM | S. cerevisiae UUG-firefly luciferase reporter, luminescence/redox ratio;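 active means replicate mean at a twofold rise or more, about +100% in these data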;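 further: firefly luciferase made from a UUG start codon reports start codon fidelity; reporter light over untreated wells divided by growth signal over untreated wells; some hits fall short of that in this replicate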
SMARCA2 activ: activators of SMARCA2 function; MG213 cells, MMTV-luciferase reporter, dexamethasone, overnight; activation, % at 9.1 µM; actives 1% (n = 370,000); in the data active = activation above about 7.8%
PDI inh: blocks human protein disulfide isomerase activity | PDI insulin aggregation turbidity, A650, 90 min | inhibition, % at 10 µM | actives 0.052% (n = 350,000) | P07237;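 active = mean inhibition across replicates of 30% or more, whatever share of single replicates reach that level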
ERp5 inh: blocks human ERp5 reductase activity on insulin; actives 0.05% (n = 350,000); Q15084; ERp5 insulin aggregation, absorbance 650 nm, 90 min; inhibition, % at 9.99 µM;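 active = mean replicate inhibition above about 25%, with every replicate also reaching it, limit read from the data, passing the limit was not always enough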
GSIS activator: primary screen for activators of insulin secretion dependent on glucose, INS-1E cells, GLuc reporter luminescence; INS-1E GLuc reporter insulin secretion, 2-3 h; activation, % at 16.6 µM; actives 0.61% (n = 370,000); AID 743287;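 active = lowest replicate activation of at least 40%, so every replicate reaches that level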
SMARCA2 act conf: SMARCA2 activation, confirmation screen | actives 30% (n = 3,500) | activation, % at 9.1 µM | shares compounds with SMARCA2 activ | MG213 cells, MMTV-luciferase with dexamethasone, luminescence, overnight; MG213 cells expressing E1A, Rb sequestered; DMSO wells 0%, reference activator 100% | AID 652260;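 active = activation above its plate's cutoff, the mean activation of tested wells plus 3 SD, cut at about 7.9% in these data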
VP16 Luc act: counter-screen for SMARCA2 activators: GAL4-VP16 luciferase reporter activation; shares compounds with SMARCA2 activ; HEK293 GAL4-VP16 pG5luc reporter, luciferase luminescence; scaled: DMSO wells 0%, SAHA wells 100%; activation, % at 9.1 µM; actives 41% (n = 3,500); AID 686939;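 active = activation above the solvent-only control well mean plus 3 SD, averaged across control plates, cut at about 5.2% in these data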
Of the large screens only hits and unclear results are named; the others gave an inactive call (follow-up assays come after a bar, where they were run). Only some compounds are listed: those with a hit (about 2.1% of all), similar ones and a draw of the others.

O=C1CC(N2CCN(c3nc4ccccc4s3)CC2)C(=O)N1c1ccc(F)cc1 (stereo not drawn)	none (no result: ERp5 inh, GSIS activator)
COc1ccc2c3c([nH]c2c1)[C@H](CO)N(CC1CC1)CC31CN(C(=O)c2cccc(F)c2)C1	none (no result: NR1D1 modulator, UUG fidelity, SMARCA2 activ, PDI inh, ERp5 inh)
CCc1cc(=O)oc2cc(OC(C)=O)cc(OC(C)=O)c12	none (no result: UUG fidelity, ERp5 inh)
COc1cc(OCc2ccccc2)c2c(CCC(=O)O)cc(=O)oc2c1	SMARCA2 activ 8.5 (no result: UUG fidelity) | SMARCA2 act conf inactive | VP16 Luc act inactive
C[C@@H]1CCCCO[C@H](CN(C)Cc2ccncc2)[C@H](C)CN([C@@H](C)CO)C(=O)c2cc(N(C)C)ccc2O1	none (no result: NR1D1 modulator, SMARCA2 activ, PDI inh)
CN(C)CC(=O)Nc1ccc2c(c1)[C@@H]1C[C@H](CC(=O)N3CCN(C)CC3)O[C@@H](CO)[C@@H]1O2	none (no result: NR1D1 modulator, SMARCA2 activ, PDI inh)
Fc1ccc2nc3[nH]c4ccccc4c3nc2c1	SMARCA2 activ 13 (no result: NR1D1 modulator, ERp5 inh) | SMARCA2 act conf 17 | VP16 Luc act 13
C[C@H]1CN([C@@H](C)CO)C(=O)Cc2cc(NC(=O)Cn3cnnn3)ccc2O[C@H]1CN(C)Cc1ccc(-c2ccccc2)cc1	none (no result: NR1D1 modulator, SMARCA2 activ, PDI inh)
CC1CN(C(=O)CCC(=O)NC(C)c2ccccc2)c2cc(Cl)ccc2O1 (stereo not drawn)	SMARCA2 activ 8.3 (no result: PDI inh) | SMARCA2 act conf inactive | VP16 Luc act inactive
CC1CN(C(=O)CCC(=O)N2CCCCC2)c2cc(Cl)ccc2O1 (stereo not drawn)	none
Cc1nnc(SCC(=O)NC(=O)Nc2ccc3c(c2)OCCO3)s1	SMARCA2 activ 11 (no result: UUG fidelity) | SMARCA2 act conf inactive | VP16 Luc act inactive
COCC(=O)Nc1ccc2c(c1)C(=O)N(C)C[C@@H](OC)[C@H](C)CN(Cc1ccccc1OC)[C@H](C)CO2	none (no result: NR1D1 modulator, SMARCA2 activ, PDI inh)
CC(C)C#Cc1ccc2c(c1)O[C@H](CN(C)C(=O)C1CCC1)[C@@H](C)CN([C@H](C)CO)S2(=O)=O	none (no result: NR1D1 modulator, UUG fidelity, SMARCA2 activ, PDI inh, ERp5 inh)
Cc1ccc(C(=O)COc2cc(C)nc3nncn23)cc1	SMARCA2 activ 11 (no result: UUG fidelity, GSIS activator) | SMARCA2 act conf inactive | VP16 Luc act inactive
Cc1ccc(C(=O)COc2nc(C)cc(C)c2C#N)cc1	none (no result: ERp5 inh, GSIS activator)
Cc1noc(C)c1NC(=O)Nc1cccc2c1O[C@@H](CN(C)C(=O)Nc1ccc3c(c1)OCO3)[C@H](C)CN([C@H](C)CO)C2=O	none (no result: NR1D1 modulator, SMARCA2 activ, PDI inh)
O=C(Nc1ccccc1)[C@@H]1[C@@H](CO)[C@@H]2Cn3c(cccc3=O)[C@H]1N2Cc1ccncc1	none (no result: NR1D1 modulator, SMARCA2 activ, PDI inh)
O=S(=O)(/N=C(/NC(=S)Nc1ccccc1)c1ccccc1)c1ccc(Cl)cc1	SMARCA2 activ 8.8 | SMARCA2 act conf 9.2 | VP16 Luc act 6.4
O=C(NN/C(=N/S(=O)(=O)c1ccc(Cl)cc1)c1ccccc1)c1cccc(Cl)c1	SMARCA2 activ 10.0 | SMARCA2 act conf 10 | VP16 Luc act 12
Cc1ccc(S(=O)(=O)/N=C(/NNC(=O)c2cccc(Cl)c2)c2ccccc2)cc1	none
O=C(C[C@@H]1CC[C@@H](NC(=O)CN2CCOCC2)[C@@H](CO)O1)NCc1cccc(F)c1	none (no result: NR1D1 modulator, UUG fidelity, SMARCA2 activ, PDI inh)
Cn1cccc1CC(=O)NNC(=S)Nc1ccccc1Cl	SMARCA2 activ 8.3 | SMARCA2 act conf inactive | VP16 Luc act inactive
COc1cc(C(=O)N2CC(=O)Nc3ccccc32)cc(OC)c1OC	SMARCA2 activ 9.2 | SMARCA2 act conf inactive | VP16 Luc act inactive
Cc1cc(C)cc(C(=O)N2CC(=O)Nc3ccccc32)c1	none (no result: UUG fidelity, ERp5 inh, GSIS activator)
c1ccn2c(c1)nc1c2nc2ccccn21	SMARCA2 activ 12 (no result: ERp5 inh) | SMARCA2 act conf inactive | VP16 Luc act inactive
O=C(COC(=O)/C=C/c1ccc(Cl)cc1Cl)NCC1CCCO1 (stereo not drawn)	SMARCA2 activ 8.7 | SMARCA2 act conf inactive | VP16 Luc act inactive
O=C(COC(=O)/C=C/c1c(F)cccc1Cl)NCC1CCCO1 (stereo not drawn)	none
Nc1ccccc1C=C1Cc2ccccc2C1=O	none (no result: UUG fidelity)
Nc1ccccc1/C=C/c1ccccc1N	SMARCA2 activ 9.9 | SMARCA2 act conf 14 | VP16 Luc act 10
Cc1ccccc1S(=O)(=O)N[C@H]1CC[C@@H](CCNS(=O)(=O)c2cccc(F)c2)O[C@H]1CO	none (no result: NR1D1 modulator, SMARCA2 activ, PDI inh)
COc1ccc(S(=O)(=O)N(C)C[C@@H]2OCCCC[C@H](C)Oc3ccc(NS(=O)(=O)c4ccc(F)cc4)cc3C(=O)N([C@@H](C)CO)C[C@@H]2C)cc1	none (no result: NR1D1 modulator, SMARCA2 activ, PDI inh)
O=C(OCc1nc2ccccc2s1)c1cc2ccccc2oc1=O	SMARCA2 activ 8.2 (no result: UUG fidelity, PDI inh, ERp5 inh) | SMARCA2 act conf inactive | VP16 Luc act 9.1
CN1CCN(C(=S)NC(=O)/C=C/c2ccccc2)CC1	SMARCA2 activ 8.3 (no result: ERp5 inh) | SMARCA2 act conf inactive | VP16 Luc act inactive
Cn1ncc2c(Nc3ccc(Br)cc3)nc(Nc3ccc(Br)cc3)nc21	none
Cn1ncc2c(Nc3ccc(O)cc3)nc(Cl)nc21	SMARCA2 activ 18 | SMARCA2 act conf inactive | VP16 Luc act inactive
O=C(/C=C/c1ccc(Cl)cc1Cl)N1CCc2ccccc21	SMARCA2 activ 8.7 (no result: UUG fidelity, ERp5 inh) | SMARCA2 act conf 8.3 | VP16 Luc act 8.6
Cc1ccc(-n2sc3ccccc3c2=O)cc1	SMARCA2 activ 8.0 (no result: UUG fidelity, ERp5 inh) | SMARCA2 act conf 11 | VP16 Luc act inactive
C[C@@H]1CN([C@@H](C)CO)C(=O)Cc2cc(NC(=O)Cn3cnnn3)ccc2O[C@@H]1CN(C)C(=O)Nc1ccc(C(F)(F)F)cc1	none (no result: NR1D1 modulator, SMARCA2 activ, PDI inh)
COc1ccc(-c2ccc3n(c2=O)C[C@H]2[C@H](CO)[C@@H](C(=O)N(C)C)N(CC4CC4)[C@@H]32)cc1	none (no result: NR1D1 modulator, SMARCA2 activ, PDI inh)
COc1ccc(OCc2cc(C(=O)NC(C)c3csc(C)n3)no2)c(Cl)c1 (stereo not drawn)	SMARCA2 activ 9.8 | SMARCA2 act conf inactive | VP16 Luc act 6.0
O=C(Nc1ccc2c(c1)[C@@H]1C[C@@H](CC(=O)N3CCCCC3)O[C@@H](CO)[C@@H]1O2)C1CCC1	none (no result: NR1D1 modulator, SMARCA2 activ, PDI inh)
OC(COCc1ccccc1)CN1CCc2ccccc2C1 (stereo not drawn)	none (no result: UUG fidelity, ERp5 inh)
COc1ccc(COCC(O)CN2CCc3ccccc3C2)cc1OC (stereo not drawn)	SMARCA2 activ 8.8 (no result: UUG fidelity, GSIS activator) | SMARCA2 act conf inactive | VP16 Luc act inactive
COC(=O)c1ccccc1NC(=S)NC(=O)COc1ccccc1Cl	none (no result: ERp5 inh, GSIS activator)
O=C(COc1ccccc1Cl)NC(=S)Nc1ccccc1N1CCCC1	SMARCA2 activ 11 | SMARCA2 act conf inactive | VP16 Luc act inactive
c1coc(-c2nnc(NC3=NCCC3)o2)c1	SMARCA2 activ 8.8 (no result: ERp5 inh, GSIS activator) | SMARCA2 act conf inactive | VP16 Luc act 5.4
COc1cc(NC(=O)COc2ccc(-n3cnnn3)cc2)c(OC)cc1Cl	none (no result: ERp5 inh, GSIS activator)
O=C(COc1ccc(-n2cnnn2)cc1)Nc1cccc(Cl)c1Cl	SMARCA2 activ 8.1 | SMARCA2 act conf inactive | VP16 Luc act inactive

Compound activity deposited in PubChem BioAssay by several laboratories.
